Values quoted from earlier work, collected in US7829562B2, “Sigma ligands for neuronal regeneration and functional recovery” (M's Science Corporation, priority 2003, dated 2010).

Amino acid sequences for entries named in this document (tags omitted).
UniProt Q99720, whole entry: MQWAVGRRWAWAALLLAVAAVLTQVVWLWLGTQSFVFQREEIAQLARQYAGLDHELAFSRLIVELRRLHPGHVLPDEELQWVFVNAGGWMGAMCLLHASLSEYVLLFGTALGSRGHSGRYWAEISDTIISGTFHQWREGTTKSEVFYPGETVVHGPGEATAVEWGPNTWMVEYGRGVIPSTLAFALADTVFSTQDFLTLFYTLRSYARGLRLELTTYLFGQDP

Molecular target: sigma-1 site compared to the sigma-2 site (Homo sapiens, UniProt Q99720)
Conditions: (+) isomers of benzomorphan opiates; cited from earlier work

Substance: (+)SKF 10,047
- affinity for the sigma-1 site compared to the sigma-2 site: nearly two orders of magnitude higher affinity
